Molecules are shown by their SMILES. Active and inactive are the calls of the source. No cut-off for these calls is given here.

Chains of the proteins cited; added tags and fusions are not shown.
UniProt P10608, whole entry, looked up: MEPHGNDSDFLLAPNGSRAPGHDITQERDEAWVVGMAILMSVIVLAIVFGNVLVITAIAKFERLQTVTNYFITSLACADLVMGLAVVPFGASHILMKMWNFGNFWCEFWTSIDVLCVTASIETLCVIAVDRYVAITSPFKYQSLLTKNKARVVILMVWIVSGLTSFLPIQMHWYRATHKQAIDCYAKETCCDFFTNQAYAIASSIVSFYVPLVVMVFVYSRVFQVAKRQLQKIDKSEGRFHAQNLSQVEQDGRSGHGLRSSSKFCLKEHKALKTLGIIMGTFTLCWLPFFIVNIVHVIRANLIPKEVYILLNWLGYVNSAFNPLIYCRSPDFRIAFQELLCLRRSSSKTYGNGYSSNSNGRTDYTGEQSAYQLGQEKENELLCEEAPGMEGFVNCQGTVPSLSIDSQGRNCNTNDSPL

The target in the experiment is Beta-2 adrenergic receptor (Rattus norvegicus) (UniProt P10608). Put plainly: Vasodilating activity against phenylephrine-induced contractions in rat thoracic aorta. In kind it is functional, tissue-based.

For `CC(Cc1ccc(O)cc1)NCC(O)c1cc(O)cc(O)c1` (stereo unspecified), the result was inactive.

Values taken from ChEMBL document CHEMBL1148806, “Nitric oxide donor beta2-agonists: furoxan derivatives containing the fenoterol moiety and related furazans” (J Med Chem, 2007).
